A word on the Emax: it is the maximal effect, on the per cent scale that the assay sets. What is called EC50 is the concentration needed to bring the measured effect to its halfway point. Higher therefore signals a need for much substance.

We go through 6 molecules from patent publication US6936585B2, “Corticotropin releasing factor 2 receptor agonists” (priority 2002, dated 2005).

Molecules are shown by their SMILES. Bounds are passed on as bounds.

In one experiment the target is T1, CRF2R (Homo sapiens, UniProt Q13324).
T1 sequence (Q13324 1-411): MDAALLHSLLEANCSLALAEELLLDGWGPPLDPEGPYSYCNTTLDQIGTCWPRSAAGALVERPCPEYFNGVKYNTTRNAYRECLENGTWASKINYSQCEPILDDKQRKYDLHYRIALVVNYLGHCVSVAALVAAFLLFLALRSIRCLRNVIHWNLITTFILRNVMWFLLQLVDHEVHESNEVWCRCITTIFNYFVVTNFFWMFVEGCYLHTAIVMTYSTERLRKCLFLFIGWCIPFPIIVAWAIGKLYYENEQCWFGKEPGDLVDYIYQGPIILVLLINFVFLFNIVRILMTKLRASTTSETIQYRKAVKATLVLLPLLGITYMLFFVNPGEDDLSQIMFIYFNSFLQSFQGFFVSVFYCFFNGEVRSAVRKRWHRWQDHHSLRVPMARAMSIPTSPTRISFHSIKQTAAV
The experiment can be described thus: CRF2R agonist activation (EC50 / Emax), called comparative CRF binding. The settings on record: for Emax: read-out: CRF2R Emax. Format: cell-based. In short, it runs like this: (§1)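 Read-out is Gαs-driven cAMP induction, quantified directly in lysates or through CRE-reporter gene expression, after treating CRF1R- or CRF2R-expressing cells with peptide. Vehicle-treated cells serve as the comparison.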

The next experiment deals with T2, CRF1R (Homo sapiens, UniProt P34998).
T2 sequence (P34998 24-415): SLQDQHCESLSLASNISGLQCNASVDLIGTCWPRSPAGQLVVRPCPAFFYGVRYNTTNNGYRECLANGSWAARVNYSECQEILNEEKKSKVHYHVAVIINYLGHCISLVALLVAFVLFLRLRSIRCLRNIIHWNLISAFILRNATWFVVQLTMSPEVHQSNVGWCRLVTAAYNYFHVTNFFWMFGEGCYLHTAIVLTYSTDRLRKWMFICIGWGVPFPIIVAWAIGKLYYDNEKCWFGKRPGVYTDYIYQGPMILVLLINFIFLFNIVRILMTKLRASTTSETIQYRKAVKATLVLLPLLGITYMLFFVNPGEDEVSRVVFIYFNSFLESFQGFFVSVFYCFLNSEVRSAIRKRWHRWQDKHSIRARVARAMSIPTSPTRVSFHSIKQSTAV
The experiment can be described thus: CRF1R agonist activation (EC50 / Emax), called comparative CRF binding. The experiment is classed as cell-based. The settings on record: for Emax: read-out: CRF1R Emax. The essentials: as §1

Regarding `CC[C@H](C)[C@H](NC(=O)[C@@H](NC(=O)[C@H](CC(=O)O)NC(=O)[C@H](CC(C)C)NC(=O)[C@H](CC(C)C)NC(=O)[C@H](CC(C)C)NC(=O)[C@H](CCCNC(=N)N)NC(=O)[C@H](CC(N)=O)NC(=O)[C@H](CC(N)=O)NC(=O)[C@H](C)NC(=O)[C@H](C)NC(=O)[C@H](CCC(N)=O)NC(=O)[C@H](CCC(N)=O)NC(=O)[C@H](CCCCN)NC(=O)[C@H](CCC(=O)O)NC(=O)[C@H](CCCCN)NC(=O)[C@H](CCC(=O)O)NC(=O)[C@H](CCC(N)=O)NC(=O)[C@H](CCCCN)NC(=O)[C@H](CCC(=O)O)NC(=O)[C@@H](NC(=O)[C@H](CCC(=O)O)NC(=O)[C@@H](NC(=O)[C@H](CCSC)NC(=O)[C@H](CCCCN)NC(=O)[C@H](CCCNC(=N)N)NC(=O)[C@H](CC(C)C)NC(=O)[C@H](CC(C)C)NC(=O)[C@H](CCCNC(=N)N)NC(=O)[C@@H](NC(=O)[C@@H]1CCCN1C(=O)[C@H](CC(C)C)NC(=O)[C@H](CC(=O)O)NC(=O)[C@@H](NC(=O)[C@H](CO)NC(=O)[C@@H](NC(=O)[C@@H]1CCCN1C(=O)[C@@H]1CCCN1C(=O)CNC(=O)[C@@H]1CCC(=O)N1)[C@@H](C)CC)[C@@H](C)CC)[C@@H](C)O)[C@@H](C)CC)[C@@H](C)CC)[C@@H](C)O)C(N)=O` [compound 60], the Emax at CRF2R was 44%; at CRF1R it was 8%.

Regarding `CC[C@H](C)[C@H](NC(=O)[C@@H](NC(=O)[C@H](CC(=O)O)NC(=O)[C@H](CC(C)C)NC(=O)[C@H](CC(C)C)NC(=O)[C@H](CC(C)C)NC(=O)[C@H](CCCNC(=N)N)NC(=O)[C@H](CC(N)=O)NC(=O)[C@H](CC(N)=O)NC(=O)[C@H](C)NC(=O)[C@H](C)NC(=O)[C@H](CCC(N)=O)NC(=O)[C@H](CCC(N)=O)NC(=O)[C@H](CCCCN)NC(=O)[C@H](CCC(=O)O)NC(=O)[C@H](CCCCN)NC(=O)[C@H](CCC(=O)O)NC(=O)[C@H](CCC(N)=O)NC(=O)[C@H](CCCCN)NC(=O)[C@H](CCC(=O)O)NC(=O)[C@@H](NC(=O)[C@H](CCC(=O)O)NC(=O)[C@@H](NC(=O)[C@H](CCSC)NC(=O)[C@H](CCCCN)NC(=O)[C@H](CCCNC(=N)N)NC(=O)[C@H](CC(C)C)NC(=O)[C@H](CC(C)C)NC(=O)[C@H](Cc1ccc(O)cc1)NC(=O)[C@H](C)NC(=O)[C@@H]1CCCN1C(=O)[C@H](CC(C)C)NC(=O)[C@H](CC(=O)O)NC(=O)[C@@H](NC(=O)[C@H](CO)NC(=O)[C@@H](NC(=O)[C@@H]1CCCN1C(=O)[C@@H]1CCCN1C(=O)CNC(=O)[C@@H]1CCC(=O)N1)[C@@H](C)CC)[C@@H](C)CC)[C@@H](C)CC)[C@@H](C)CC)[C@@H](C)O)C(N)=O` [compound 32], the Emax on CRF2R is 98%; at CRF1R, 94%.

Take `CC[C@H](C)[C@H](NC(=O)[C@@H](NC(=O)[C@H](CC(=O)O)NC(=O)[C@H](CC(C)C)NC(=O)[C@H](CC(C)C)NC(=O)[C@H](CCCNC(=N)N)NC(=O)[C@H](C)NC(=O)[C@H](CC(N)=O)NC(=O)[C@H](CC(N)=O)NC(=O)[C@H](C)NC(=O)[C@H](C)NC(=O)[C@H](CCC(N)=O)NC(=O)[C@H](CCC(N)=O)NC(=O)[C@H](CCCCN)NC(=O)[C@H](CCC(=O)O)NC(=O)[C@H](CCCCN)NC(=O)[C@H](CCC(=O)O)NC(=O)[C@H](CCC(N)=O)NC(=O)[C@H](CCCCN)NC(=O)[C@H](CCC(=O)O)NC(=O)[C@@H](NC(=O)[C@H](CCC(=O)O)NC(=O)[C@@H](NC(=O)[C@@H](NC(=O)[C@H](CCCCN)NC(=O)[C@H](CCCNC(=N)N)NC(=O)[C@H](CC(C)C)NC(=O)[C@H](CC(C)C)NC(=O)[C@H](CCC(N)=O)NC(=O)[C@H](CC(C)C)NC(=O)[C@@H]1CCCN1C(=O)[C@@H](NC(=O)[C@H](CC(=O)O)NC(=O)[C@@H](NC(=O)[C@H](CO)NC(=O)[C@@H](NC(=O)[C@@H]1CCCN1C(=O)[C@@H]1CCCN1C(=O)CNC(=O)[C@@H]1CCC(=O)N1)[C@@H](C)CC)[C@@H](C)CC)C(C)C)C(C)C)[C@@H](C)CC)[C@@H](C)CC)[C@@H](C)O)C(N)=O` [compound 380]: the EC50 is 19 nM on CRF2R and no less than 1000 nM on CRF1R (CRF1R EC50). In addition, the maximal response (Emax) on CRF2R amounted to 100%; at CRF1R, 16%.

With `CC[C@H](C)[C@H](NC(=O)[C@@H](NC(=O)[C@H](CC(=O)O)NC(=O)[C@H](CC(C)C)NC(=O)[C@H](CC(C)C)NC(=O)[C@H](CC(C)C)NC(=O)[C@H](CCCNC(=N)N)NC(=O)[C@H](CC(N)=O)NC(=O)[C@H](CC(N)=O)NC(=O)[C@H](C)NC(=O)[C@H](C)NC(=O)[C@H](CCC(N)=O)NC(=O)[C@H](CCC(N)=O)NC(=O)[C@H](CCCCN)NC(=O)[C@H](CCC(=O)O)NC(=O)[C@H](CCCCN)NC(=O)[C@H](CCC(=O)O)NC(=O)[C@H](CCC(N)=O)NC(=O)[C@H](CCCCN)NC(=O)[C@H](CCC(=O)O)NC(=O)[C@@H](NC(=O)[C@H](CCC(=O)O)NC(=O)[C@@H](NC(=O)[C@H](CCSC)NC(=O)[C@H](CCCCN)NC(=O)[C@H](CCCNC(=N)N)NC(=O)[C@H](CC(C)C)NC(=O)[C@H](CC(C)C)NC(=O)[C@@H]1CCCN1C(=O)[C@@H](NC(=O)[C@@H]1CCCN1C(=O)[C@H](CC(C)C)NC(=O)[C@H](CC(=O)O)NC(=O)[C@@H](NC(=O)[C@H](CO)NC(=O)[C@@H](NC(=O)[C@@H]1CCCN1C(=O)[C@@H]1CCCN1C(=O)CNC(=O)[C@@H]1CCC(=O)N1)[C@@H](C)CC)[C@@H](C)CC)[C@@H](C)O)[C@@H](C)CC)[C@@H](C)CC)[C@@H](C)O)C(N)=O` [compound 52], the figures for the Emax at CRF2R and on CRF1R were 10% and 13%, respectively.

For the molecule `CC[C@H](C)[C@H](NC(=O)[C@@H](NC(=O)[C@H](C)NC(=O)[C@H](CC(C)C)NC(=O)[C@H](CC(C)C)NC(=O)[C@H](CC(C)C)NC(=O)[C@H](CCCNC(=N)N)NC(=O)[C@H](CC(N)=O)NC(=O)[C@H](CC(N)=O)NC(=O)[C@H](C)NC(=O)[C@H](C)NC(=O)[C@H](CCC(N)=O)NC(=O)[C@H](CCC(N)=O)NC(=O)[C@H](CCCCN)NC(=O)[C@H](CCC(=O)O)NC(=O)[C@H](CCCCN)NC(=O)[C@H](CCC(=O)O)NC(=O)[C@H](CCC(N)=O)NC(=O)[C@H](CCCCN)NC(=O)[C@H](CCC(=O)O)NC(=O)[C@@H](NC(=O)[C@H](CCC(=O)O)NC(=O)[C@@H](NC(=O)[C@H](CCSC)NC(=O)[C@H](CCCCN)NC(=O)[C@H](CCCNC(=N)N)NC(=O)[C@H](CC(C)C)NC(=O)[C@H](CC(C)C)NC(=O)[C@H](CCC(N)=O)NC(=O)[C@H](Cc1ccccc1)NC(=O)[C@@H]1CCCN1C(=O)[C@H](CC(C)C)NC(=O)[C@H](CC(=O)O)NC(=O)[C@@H](NC(=O)[C@H](CO)NC(=O)[C@@H](NC(=O)[C@@H]1CCCN1C(=O)[C@@H]1CCCN1C(=O)CNC(=O)[C@@H]1CCC(=O)N1)[C@@H](C)CC)[C@@H](C)CC)[C@@H](C)CC)[C@@H](C)CC)[C@@H](C)O)C(N)=O` [compound 250], the Emax at CRF2R worked out at 100%; at CRF1R it was 99%.

On to `CC[C@H](C)[C@H](NC(=O)[C@@H](NC(=O)[C@H](CC(=O)O)NC(=O)[C@H](CC(C)C)NC(=O)[C@H](CC(C)C)NC(=O)[C@H](CC(C)C)NC(=O)[C@H](CCCNC(=N)N)NC(=O)[C@H](CC(N)=O)NC(=O)[C@H](CC(N)=O)NC(=O)[C@H](C)NC(=O)[C@H](C)NC(=O)[C@H](CCC(N)=O)NC(=O)[C@H](CCC(N)=O)NC(=O)[C@H](CCCCN)NC(=O)[C@H](CCC(=O)O)NC(=O)[C@H](CCCCN)NC(=O)[C@H](CCC(=O)O)NC(=O)[C@H](CCC(N)=O)NC(=O)[C@H](CCCCN)NC(=O)[C@H](CCC(=O)O)NC(=O)[C@@H](NC(=O)[C@H](CCC(=O)O)NC(=O)[C@@H](NC(=O)[C@H](CCSC)NC(=O)[C@H](CCCCN)NC(=O)[C@H](CCCNC(=N)N)NC(=O)[C@H](CC(C)C)NC(=O)[C@H](CC(C)C)NC(=O)[C@@H](NC(=O)[C@H](CC(C)C)NC(=O)[C@@H]1CCCN1C(=O)[C@H](CC(C)C)NC(=O)[C@H](CC(=O)O)NC(=O)[C@@H](NC(=O)[C@H](CO)NC(=O)[C@@H](NC(=O)[C@@H]1CCCN1C(=O)[C@@H]1CCCN1C(=O)CNC(=O)[C@@H]1CCC(=O)N1)[C@@H](C)CC)[C@@H](C)CC)C(C)C)[C@@H](C)CC)[C@@H](C)CC)[C@@H](C)O)C(N)=O` [compound 193], for which the Emax at CRF2R stood at 97%; at CRF1R, 95%.
